Target: human URAT1 (Homo sapiens, UniProt Q96S37)
Assay: URAT1 binding assay with 3H-verinurad, human URAT1 membranes
Conditions: untreated URAT1 samples; tested as the radiolabelled form

Sequences of proteins named here, by UniProt entry; tags and fusion partners are left off.
UniProt Q96S37, whole entry: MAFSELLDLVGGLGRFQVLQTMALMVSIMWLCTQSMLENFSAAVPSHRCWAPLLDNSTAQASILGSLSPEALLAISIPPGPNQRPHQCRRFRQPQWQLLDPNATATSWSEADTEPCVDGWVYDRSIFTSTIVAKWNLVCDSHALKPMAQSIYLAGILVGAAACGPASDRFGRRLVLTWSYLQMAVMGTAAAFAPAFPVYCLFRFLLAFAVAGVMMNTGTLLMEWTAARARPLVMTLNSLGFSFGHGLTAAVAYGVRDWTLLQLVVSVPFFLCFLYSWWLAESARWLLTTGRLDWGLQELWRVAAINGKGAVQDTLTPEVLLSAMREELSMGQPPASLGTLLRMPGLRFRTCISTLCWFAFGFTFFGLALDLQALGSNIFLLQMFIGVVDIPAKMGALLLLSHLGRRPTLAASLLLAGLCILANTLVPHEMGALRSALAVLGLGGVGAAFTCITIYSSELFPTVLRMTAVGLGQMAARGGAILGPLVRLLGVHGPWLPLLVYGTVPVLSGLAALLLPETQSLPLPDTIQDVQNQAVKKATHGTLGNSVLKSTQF

SMILES: CC(C)(Sc1ccncc1-c1ccc(C#N)c2ccccc12)C(=O)O [Verinurad, 2-((3-(4-cyanonaphthalen-1-yl)pyrindin-4-yl)thio)-2-methylpropanoic acid]
- B max of 3H-verinurad binding: 53 fmol/µg protein
